## Yeast mating assay B: variants of the scFv Ab-14

Source: Li et al. 2023 (doi:10.1038/s41467-023-39022-2), MIT Lincoln Laboratory and A-Alpha Bio; data file from the FLAb repository.

Target peptide (SARS-CoV-2 spike, HR2 region): PDVDLGDISGINAS

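Phage display of a naive human antibody library on the peptide gave the parent. This is the validation round: designs drawn from the data on random variants, tested in the same kind of assay. Group labels follow the data file (Ctrl: baseline library sampled from a position-specific scoring matrix, with some repeated check sequences; En: ensemble of fine-tuned language models; GP: Gaussian process model; GPLM: also part of the Gaussian process libraries; HC: hill climbing; Gen: genetic algorithm; Gibbs: Gibbs sampling; a sequence that several methods proposed may carry one label only). The scFvs were displayed on barcoded MATa yeast, the peptide on MATalpha yeast. Mating (16 h, 30 °C) was followed by selection of diploids and sequencing of their barcodes. Scores were corrected for input abundance and mapped to Kd with protein pairs of known affinity run in the same pool. The assay was run in six technical replicates.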

Parent scFv Ab-14: VH joined to VL by a 15-residue (Gly4Ser)3 linker. Changes lie in the heavy chain CDRs alone.
VH: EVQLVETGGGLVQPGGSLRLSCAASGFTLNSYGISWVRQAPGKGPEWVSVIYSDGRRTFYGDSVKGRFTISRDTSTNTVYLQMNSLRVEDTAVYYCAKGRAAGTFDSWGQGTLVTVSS
VL: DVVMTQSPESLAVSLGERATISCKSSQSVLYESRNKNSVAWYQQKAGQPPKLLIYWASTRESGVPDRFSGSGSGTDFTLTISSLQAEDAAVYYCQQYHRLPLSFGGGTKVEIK

Each variant is given by its three heavy chain CDRs, as the data file delimits them; those of the parent are GFTLNSYGIS, VIYSDGRRTFYGDSVK, GRAAGTFDS. Kd is apparent (estimated from mating counts) and averaged on the log scale over replicates with a signal. Smaller is tighter. "nd" means that the variant was in the library but no mating with the target was seen in any replicate; the authors take this as a sign of poor binding, and no number exists. Empty control strains, which show no peptide, gave a signal in 1% of pairings with all heavy chain designs; the median was 120 nM and 95% of these signals were weaker than 7.0 nM. No background was subtracted. The control count says in how many pairings with the empty strains this scFv gave a signal. A sequence that the file lists under several names has all its replicates pooled. The authors' rule: three or more of the six replicates give a measured affinity, fewer mean a poor binder. The range of this assay differs from that of the first round, and the authors advise against merging the two.

| # | CDR-H1 | CDR-H2 | CDR-H3 | group | Kd (apparent) | replicates with signal | empty controls |
|---|---|---|---|---|---|---|---|
| 1 | GKDIDEYGIS | VIYADGRRTFVIDSVK | GMNSDFVLA | En_Gibbs | nd | 0 of 6 | 1 of 18 |
| 2 | GFWLNEYGIS | VIYSDGRRTFYTDSVK | GRAAGTFDS | GP_HC | 8.1 nM | 6 of 6 | 1 of 18 |
| 3 | GFDLDEYGIS | VIYADGRRTAYADSVK | GENAGTFDA | En_HC | 420 pM | 6 of 6 | 0 of 18 |
| 4 | GYTLNEYGIS | VIYSDGRRTFYTDSVK | GRTAGTFDS | GP_HC | 14 nM | 6 of 6 | 0 of 18 |
| 5 | GFTLNSYGIS | VIYSDGRRTFYADSVR | GRAAGLFDS | Ctrl | nd | 0 of 6 | 0 of 18 |
| 6 | GFNLDEYGVS | VIYADGFRVAYAESVK | GLQQFGFTI | En_Gibbs | nd | 0 of 6 | 0 of 18 |
| 7 | GFTLNSYGIS | VIYSDGRRTFYDDSVK | GQLAGTFDM | GPLM_HC | 12 nM | 4 of 6 | 0 of 18 |
| 8 | GFDLQEYGIS | VIYADGHRTAYTNKVK | GGESMISVT | En_Gibbs | nd | 0 of 6 | 0 of 18 |
| 9 | GADINEYGIS | VIYADGIRSAYAQSVK | GEHGSQFDI | En_Gibbs | nd | 0 of 6 | 0 of 18 |
| 10 | GFTLNQYGIS | VIYSDGRRTFYGDSVK | HEAAGTFDS | Ctrl | 32 nM | 1 of 6 | 0 of 18 |
| 11 | GFDLNSYGIS | VIYSDGRRTFYGDSVK | GPAAGTFDS | Ctrl | 1.2 nM | 6 of 6 | 0 of 18 |
| 12 | GFDLNEYGIS | VIYSDGRRTFYGDSVK | GRQAGTFDT | GP_Gibbs | 950 pM | 6 of 6 | 2 of 18 |
| 13 | GFDLNEYGIS | VIYADGIRTAYVDQVK | SRDGIVILF | En_Gibbs | nd | 0 of 6 | 0 of 18 |
| 14 | GFGLNEYGIS | VIYSDGRRTFYGDSVK | GTNAGTFDS | GP_Gibbs | 530 pM | 6 of 6 | 1 of 18 |
| 15 | GFTLNEYGIS | VIYSDGVRTFYADSFK | GRAAGTFDS | Ctrl | 5.7 nM | 6 of 6 | 0 of 18 |
| 16 | GFTLESYGIS | VIYSDGRRTFYADSVK | GRAAGTFDV | GPLM_Gen | 7.3 nM | 4 of 6 | 0 of 18 |
| 17 | GFDLDEYGIS | VIYADGMRTAYADNVK | GETAGTFDL | En_Gen | 360 pM | 6 of 6 | 0 of 18 |
| 18 | GFSLNSYGIS | VIYSDGRRTFYDDSVK | GKLAGTFDS | GPLM_Gibbs | nd | 0 of 6 | 0 of 18 |
| 19 | GFDLNEYGIS | VIYADGRRTFYTDNVK | GQNAGTFDK | En_HC | 470 pM | 6 of 6 | 0 of 18 |
| 20 | GFTLNEYGIS | VIYSDGCRTFYTDSVK | GRFAGTFDS | GPLM_HC | nd | 0 of 6 | 0 of 18 |
| 21 | SFDLNSYGIS | VIYSDGRRTFYADSVK | GKAAGTFDS | GP_Gen | 4.0 nM | 6 of 6 | 0 of 18 |
| 22 | GFSLNSYGIS | VIYSDGRRTFYGDQVK | GITAGTFDS | GP_Gen | nd | 0 of 6 | 1 of 18 |
| 23 | GFSLESYGIS | VIYSDGRRTFYADNVK | GRAAGTFDS | GPLM_Gen | 4.4 nM | 6 of 6 | 0 of 18 |
| 24 | GFWLDSYGIS | VIYSDGRRTFYGDSVK | GRAAGTFDS | Ctrl | nd | 0 of 6 | 0 of 18 |

Second part, the sequence after the result:

| # | Kd (apparent) | replicates with signal | empty controls | CDR-H1 | CDR-H2 | CDR-H3 | group |
|---|---|---|---|---|---|---|---|
| 25 | 740 pM | 6 of 6 | 0 of 18 | GFDLNEYGIS | VIYADGRRKFYADKVK | GNNAGTFNV | En_HC |
| 26 | 250 pM | 6 of 6 | 0 of 18 | GFDLEEYGIS | VIYADGSRTAYSDSVK | GNVAGTFDV | En_Gen |
| 27 | 970 pM | 6 of 6 | 0 of 18 | GFSLNSYGIS | VIYSDGRRTFYGDSVK | GQTAGTFDA | GPLM_Gen |
| 28 | 44 nM | 5 of 6 | 0 of 18 | GFTLNSYGIS | VIYSDGRRTSYEDSVK | GRAAGTKDS | Ctrl |
| 29 | 10 nM | 1 of 6 | 0 of 18 | GKSVDEYGIS | VIYADGMRAEYQNSVK | GTTGGDVFV | En_Gibbs |
| 30 | 520 nM | 1 of 6 | 0 of 18 | GFGLDEYGIS | VIYADGRRTFYADSVK | GENAGTFVM | En_HC |
| 31 | nd | 0 of 6 | 0 of 18 | GFTLNEYGIS | VIYRDGYRTFYGDSVK | GRLKGEFDS | Ctrl |
| 32 | 430 pM | 6 of 6 | 0 of 18 | GFDLNEYGIS | VIYADGRRTAYSDSVK | GEVAGTFVM | En_HC |
| 33 | 8.7 nM | 1 of 6 | 0 of 18 | GFSLNSYGIS | VIYSDGRRTFYADWVK | GRTAGTFDS | GPLM_Gen |
| 34 | 1.6 nM | 6 of 6 | 0 of 18 | GFNLNSYGIS | VIYADGRRTFYVDSVK | GQAAGTFDS | GP_HC |
| 35 | 1.2 nM | 6 of 6 | 0 of 18 | GFELNEYGIS | VIYSDGRRTFYGDSVK | GHAAGTFDK | GP_Gen |
| 36 | 480 pM | 6 of 6 | 1 of 18 | GFDLNEYGIS | VIYADGRRTFYKDSVK | GNLAGTFDQ | En_HC |
| 37 | 470 pM | 6 of 6 | 0 of 18 | GFDLNEYGIS | VIYADGMRTYYSDSVK | GNVAGTFDQ | En_Gen |
| 38 | 380 pM | 6 of 6 | 0 of 18 | GFDLNEYGIS | VIYADGQRTFYADSVK | GNQAGTFDI | En_Gen |
| 39 | 250 pM | 6 of 6 | 1 of 18 | GFDLEDYGIS | VIYADGKRTAYADDVK | GNVAGTFDV | En_Gen |
| 40 | 300 pM | 6 of 6 | 0 of 18 | GFDLNEYGIS | VIYADGKRKAYADSVK | GNVAGTFDQ | En_Gen |
| 41 | 950 pM | 6 of 6 | 1 of 18 | GFDLNEYGIS | VIYADGMRTAYTDKVK | GNNAGTFDV | En_Gen |
| 42 | 2.4 nM | 6 of 6 | 0 of 18 | GFDLNEYGIS | VIYADGMRTAYSDSVK | GENAGTFDA | En_Gen |
| 43 | 530 pM | 6 of 6 | 0 of 18 | GFDLNEYGIS | VIYADGRRTFYTDSVK | GGNAGTFDM | En_HC |
| 44 | nd | 0 of 6 | 0 of 18 | GDSLNEYGIS | VIYADGVRARYADAVK | GENDGLFDQ | En_Gibbs |
| 45 | 10 nM | 6 of 6 | 0 of 18 | GFWLEEYGIS | VIYSDGWRTFYEDSVK | GTEAGTFDS | Ctrl |
| 46 | 1.1 nM | 6 of 6 | 0 of 18 | GFVLSEYGIS | VIYADGQRTFYAPNVK | GQLNVVLNG | En_Gibbs |
| 47 | 3.3 nM | 11 of 12 | 0 of 36 | GFDLNSYGIS | VIYSDGRRTFYGDSVK | GKIAGTFDS | Ctrl+GPLM_Gen |
| 48 | nd | 0 of 6 | 0 of 18 | GYDLQDYGIS | VIYADGVRVFYHQSVK | GQLAGIFLL | En_Gibbs |

The first 5 entries again:

CDR-H1	CDR-H2	CDR-H3	group	Kd (apparent)	replicates with signal	empty controls
GKDIDEYGIS	VIYADGRRTFVIDSVK	GMNSDFVLA	En_Gibbs	nd	0 of 6	1 of 18
GFWLNEYGIS	VIYSDGRRTFYTDSVK	GRAAGTFDS	GP_HC	8.1 nM	6 of 6	1 of 18
GFDLDEYGIS	VIYADGRRTAYADSVK	GENAGTFDA	En_HC	420 pM	6 of 6	0 of 18
GYTLNEYGIS	VIYSDGRRTFYTDSVK	GRTAGTFDS	GP_HC	14 nM	6 of 6	0 of 18
GFTLNSYGIS	VIYSDGRRTFYADSVR	GRAAGLFDS	Ctrl	nd	0 of 6	0 of 18